Laboratory results: PubChem BioAssay AID1259318 (Sanford-Burnham Center for Chemical Genomics, 2017)
This is a selection; strong and weak results do not stand in their true shares. The source made the active and inactive calls.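 The calls were made as follows: active = activity above about 14% (limit read from the data; passing the limit was not always enough); inactive = the rest.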

Protein sequences, listed by entry. Tags and fused reporters are not part of them.
UniProt P20393, whole entry, looked up: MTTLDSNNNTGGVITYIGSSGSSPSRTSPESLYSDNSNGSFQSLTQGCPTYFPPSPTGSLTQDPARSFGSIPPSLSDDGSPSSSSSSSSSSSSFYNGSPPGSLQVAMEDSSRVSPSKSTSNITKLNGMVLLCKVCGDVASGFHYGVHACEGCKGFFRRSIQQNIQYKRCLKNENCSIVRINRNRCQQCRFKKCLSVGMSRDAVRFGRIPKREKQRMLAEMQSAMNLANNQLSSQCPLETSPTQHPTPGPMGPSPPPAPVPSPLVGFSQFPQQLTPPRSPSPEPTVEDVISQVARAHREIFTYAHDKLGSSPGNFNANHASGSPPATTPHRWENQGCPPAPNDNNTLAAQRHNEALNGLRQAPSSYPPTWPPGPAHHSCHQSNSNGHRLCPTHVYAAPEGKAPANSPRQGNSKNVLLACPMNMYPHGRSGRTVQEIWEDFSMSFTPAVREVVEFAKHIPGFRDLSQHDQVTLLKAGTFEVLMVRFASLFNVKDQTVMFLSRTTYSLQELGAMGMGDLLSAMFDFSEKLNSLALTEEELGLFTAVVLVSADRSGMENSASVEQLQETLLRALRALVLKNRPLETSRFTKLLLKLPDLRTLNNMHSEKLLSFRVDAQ

Biological target: Nuclear receptor subfamily 1 group D member 1 (Homo sapiens) (UniProt P20393)
Test: Rev-erbα–DNA interaction modulation – biochemical, FITC-DNA, fluorescence polarization, uHTS, primary screen (AID 1259318);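 also: 0% = DMSO wells with 35 nM protein and 100% = DMSO wells with 750 nM protein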
Settings: Rev-erbα–FITC-DNA binding, 90 min, at 10 µM, stronger effect = higher value

| SMILES | activity |
| --- | --- |
| O=C(NCC1(N2CCOCC2)CCCCC1)c1cc2ccccc2o1 | inactive: -1.36% |
| Cc1cc(C)cc(N(C(=O)c2ccccc2)C2CCN(C(=O)OC(C)(C)C)CC2)c1 | inactive: -0.38% |
| O=c1[nH]c2ccccc2n1C1CCN(C(c2ccccc2OC(F)(F)F)c2nnnn2C2CCCCC2)CC1 (stereo unspecified) | inactive: -2.39% |
| O=C(NCC1(N2CCCCC2)CCCCC1)c1ccc(Cl)nc1 | inactive: -1.45% |
| CCCCn1nnnc1C(c1ccc(OC)cc1)N1CCC(n2c(=O)[nH]c3ccccc32)CC1 (stereo unspecified) | inactive: -2.79% |
| CCOC(=O)N1CCC(Nc2ccc(OC)cc2)CC1 | inactive: 10.9% |
| COc1ccc(Cl)cc1C(=O)NCC1(N2CCOCC2)CCCCC1 | inactive: -1.67% |
| O=C(OC1CN2CCC1CC2)C1c2ccccc2Oc2ccccc21 (stereo unspecified) | inactive: 2.43% |
| O=c1[nH]c2ccccc2n1C1CCN(C(c2cc3ccccc3o2)c2nnnn2C2CCCCC2)CC1 (stereo unspecified) | inactive: 4.57% |
| N#CC1(Nc2ccccc2)CCN(Cc2ccccc2)CC1 | inactive: 5.74% |
| O=C(NCC1(N2CCCCC2)CCCCC1)c1ccc(Cl)s1 | inactive: 2.72% |
| CCCCn1nnnc1C(c1cccs1)N1CCC(n2c(=O)[nH]c3ccccc32)CC1 (stereo unspecified) | inactive: -3.81% |
| CCCCn1nnnc1C(CC)N1CCC(n2c(=O)[nH]c3ccccc32)CC1 (stereo unspecified) | inactive: 3.33% |
| O=C(NCC1(N2CCCCC2)CCCCC1)c1cccs1 | inactive: -2.67% |
| O=C(NCC1(N2CCCCC2)CCCCC1)c1ccc(=O)[nH]c1 | inactive: -10.5% |
| CCC(c1nnnn1C1CCCC1)N1CCC(n2c(=O)[nH]c3ccccc32)CC1 (stereo unspecified) | inactive: -5.18% |
| COc1ccc(C(=O)NCC2(N3CCCCC3)CCCCC2)c(OC)c1OC | inactive: -1.8% |
| CC(C)(C)OC(=O)N1CCC(N(C(=O)c2ccccc2)c2ccc(F)cc2)CC1 | inactive: -0.65% |
| COc1ccc(C(=O)NCC2(N3CCCCC3)CCCCC2)cc1 | inactive: 1.36% |
| Cc1cccc(NC2(C#N)CCN(Cc3ccccc3)CC2)c1 | inactive: 1.06% |
| CSc1ccccc1C(=O)NCC1(N2CCCCC2)CCCCC1 | inactive: 5.81% |

| SMILES | activity |
| --- | --- |
| O=c1[nH]c2ccccc2n1C1CCN(C(c2ccccc2)c2nnnn2C2CCCCC2)CC1 (stereo unspecified) | inactive: 1.55% |
| O=c1[nH]c2ccccc2n1C1CCN(C(c2cccc3ccccc23)c2nnnn2C2CCCC2)CC1 (stereo unspecified) | inactive: 5.99% |
| COc1cc(C(=O)NCC2(N(C)C)CCCCC2)ccc1OC(F)F | inactive: -5.62% |
| CCOC(=O)N1CCC(Nc2cccc(C)c2)CC1 | inactive: 2.31% |
| CCOc1ccc(C)cc1CN(CCCl)CCCl | inactive: 2.58% |
| O=C1CCN(Cc2ccccc2)CC1 | inactive: 3.91% |
| CC(C)(C)n1nnnc1C(c1ccccc1)N1CCC(n2c(=O)[nH]c3ccccc32)CC1 (stereo unspecified) | inactive: -2.26% |
| COc1ccc(NC2CCN(CCc3ccccc3)CC2)c(OC)c1 | inactive: 0.91% |
| CCOC(=O)N1CCC(Nc2ccc(F)cc2)CC1 | inactive: 6.52% |
| O=C(NCC1(N2CCCCC2)CCCCC1)c1ccc(F)cc1 | inactive: -5.68% |
| O=P1(N(CCCl)CCCl)SCCCS1 | inactive: 5% |
| CCCCn1nnnc1C(c1cc2ccccc2o1)N1CCC(n2c(=O)[nH]c3ccccc32)CC1 (stereo unspecified) | inactive: -0.14% |
| CCCCOc1ccc(C(=O)NCC2(N3CCOCC3)CCCCC2)cc1 | inactive: 1.63% |
| O=C(NCC1(N2CCCCC2)CCCCC1)c1cccc(C(F)(F)F)c1 | inactive: 3.55% |
| CCCCn1nnnc1C(c1cccc2ccccc12)N1CCC(n2c(=O)[nH]c3ccccc32)CC1 (stereo unspecified) | inactive: 6.66% |
| CN1CCN(CCOC(=O)C(O)(c2ccccc2)c2ccccc2)CC1 | inactive: 1.05% |
| COc1ccc(NC2CCN(C(=O)OC(C)(C)C)CC2)cc1 | inactive: 6.23% |
| CC(C)c1ccc(C(=O)NCC2(N3CCOCC3)CCCCC2)cc1 | inactive: 0.85% |
| COc1cc(C(=O)NCC2(N3CCCCC3)CCCCC2)ccc1OC(F)F | inactive: -2.48% |
| O=C(NCC1(N2CCOCC2)CCCCC1)c1cc(=O)[nH]c2ccccc12 | inactive: -4.25% |
| O=C(NCC1(N2CCCCC2)CCCCC1)c1ccc(OC(F)F)cc1 | inactive: -0.1% |

| SMILES | activity |
| --- | --- |
| CC(C)(C)n1nnnc1C(c1ccccc1OC(F)(F)F)N1CCC(n2c(=O)[nH]c3ccccc32)CC1 (stereo unspecified) | inactive: -3.82% |
| CSc1ccc(C(=O)NCC2(N3CCOCC3)CCCCC2)cc1 | inactive: 7.73% |
| O=C(NCC1(N2CCCCC2)CCCCC1)c1cccc([N+](=O)[O-])c1 | inactive: 4.37% |
| N#CC1(Nc2ccccc2)CCN(CCc2ccccc2)CC1 | inactive: -5.45% |
| O=c1[nH]c2ccccc2n1C1CCN(C(c2ccccc2OC(F)(F)F)c2nnnn2C2CCCC2)CC1 (stereo unspecified) | inactive: 2.43% |
| CCN1CCC(Nc2ccc(Cl)cc2)CC1 | inactive: -3.39% |
| O=C(NCC1(N2CCCCC2)CCCCC1)c1cncc(Br)c1 | inactive: 2.46% |
| CN1CCC(Nc2cccc(F)c2)CC1 | inactive: -2.29% |
| CCCOc1ccc(C(=O)NCC2(N(C)C)CCCCC2)cc1OC | inactive: -4.33% |
| Cc1ccc(C(=O)NCC2(N(C)C)CCCCC2)o1 | inactive: 2.48% |
| COc1ccc(C(c2nnnn2C2CCCC2)N2CCC(n3c(=O)[nH]c4ccccc43)CC2)cc1 (stereo unspecified) | inactive: 10.2% |
| CN(C)c1cccc(C(=O)NCC2(N3CCCCC3)CCCCC2)c1 | inactive: 1.86% |
| COC(=O)C1(Nc2ccccc2)CCN(Cc2ccccc2)CC1 | inactive: -5.98% |
| COc1ccc(CN(CCCl)CCCl)cc1Cl | inactive: -7.44% |
| CC(C)c1ccc(NC2CCN(C(=O)OC(C)(C)C)CC2)cc1 | inactive: -6.22% |
| CCCCn1nnnc1C(c1ccnc2ccccc12)N1CCC(n2c(=O)[nH]c3ccccc32)CC1 (stereo unspecified) | inactive: -0.93% |
| CCC(c1nnnn1C(C)(C)C)N1CCC(n2c(=O)[nH]c3ccccc32)CC1 (stereo unspecified) | inactive: -0.62% |
| O=C(NCC1(N2CCOCC2)CCCCC1)c1cc(F)c(F)cc1Cl | inactive: -3.29% |
| COc1cc(OC)c(C(=O)NCC2(N(C)C)CCCCC2)cc1OC | inactive: 1.08% |
